{
  "source": "patent US20220192984A1",
  "about": "“PHARMACEUTICAL COMPOSITIONS COMPRISING OTIC THERAPEUTIC AGENTS AND RELATED METHODS” (Frequency Therapeutics, Inc., priority 2018, published 2022)",
  "origin": "cited, not measured here",
  "biological_target": "LSD1 (Homo sapiens, UniProt O60341)",
  "conditions": "Table 18, LSD1; read-out: pKi or IC50 (converted); cited from earlier work",
  "data": [
    {"substance": "OG-L002", "values": [
      {"measurement": "IC50", "value": 0.02, "unit": "µM"}
    ]}
  ]
}
